In experiment [1] the test system is P. falciparum blood stage. The following applies: result in words.
A further experiment relates to CRL-8155 cells. Put plainly: cells. Conditions: Homo sapiens, CRL8155, read-out: CRL8155 EC50.
Another experiment deals with HepG2 cells. Put plainly: cells. The following applies: Homo sapiens, HepG2, read-out: HepG2 EC50.

The results in this text go back to PMC5159281 (2016).

SMILES strings stand for the structures. Some results are limits rather than exact numbers.

The term EC50 denotes the concentration needed to bring the measured effect to its halfway point.

For the compound `CCOc1ccc2cc(-c3nn(C(C)(C)C)c(N)c3C(N)=O)ccc2c1` [Compound 5], the anti-erythrocytic stage inhibition entry in experiment [1] is on record as “some observable anti-erythrocytic stage inhibition”. Further, the EC50 in the experiment with CRL-8155 cells and with HepG2 cells was over 30 µM in each case.
With `CCOc1ccc2cc(-c3nn(C(C)(C)C)c(N)c3C(N)=O)cnc2c1` [Compound 6], the EC50 in the experiment on CRL-8155 cells was over 30 µM.
Take `CC(C)(C)n1nc(-c2cnc3cc(OC4CC4)ccc3c2)c(C(N)=O)c1N` [Compound 8]: the EC50 in the experiment on CRL-8155 cells and with HepG2 cells was over 30 µM each time.
Turning to `NC(=O)c1c(-c2ccc3ccccc3c2)nn(CC(F)(F)F)c1N` [Compound 12], the EC50 in the experiment on CRL-8155 cells and in the experiment with HepG2 cells was over 30 µM in each case.
On to `CC(C)n1nc(-c2ccc3nc(OC4CCC4)ccc3c2)c(C(N)=O)c1N` [Compound 27], for which the concentration giving a half-maximal response (EC50) with CRL-8155 cells and in the experiment with HepG2 cells was over 30 µM throughout.
